Consider one compound from ChEMBL document CHEMBL5046295 (J Med Chem, 2022).

Protein sequences, listed by entry. Tags and fused reporters are not part of them. Lines headed by an entry give the natural chain unless they say otherwise; changes in a name come on top.
UniProt P41143, whole entry: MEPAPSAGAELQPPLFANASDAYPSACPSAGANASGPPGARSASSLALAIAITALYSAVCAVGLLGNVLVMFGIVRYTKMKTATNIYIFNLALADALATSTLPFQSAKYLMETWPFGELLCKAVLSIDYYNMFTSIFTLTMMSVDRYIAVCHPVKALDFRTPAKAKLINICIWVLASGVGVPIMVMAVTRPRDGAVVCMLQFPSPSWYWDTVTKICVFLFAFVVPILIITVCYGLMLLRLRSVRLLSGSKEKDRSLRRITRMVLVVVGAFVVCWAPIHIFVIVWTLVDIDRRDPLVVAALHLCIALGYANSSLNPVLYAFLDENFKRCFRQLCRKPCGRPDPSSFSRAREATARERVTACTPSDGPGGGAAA
UniProt P33534: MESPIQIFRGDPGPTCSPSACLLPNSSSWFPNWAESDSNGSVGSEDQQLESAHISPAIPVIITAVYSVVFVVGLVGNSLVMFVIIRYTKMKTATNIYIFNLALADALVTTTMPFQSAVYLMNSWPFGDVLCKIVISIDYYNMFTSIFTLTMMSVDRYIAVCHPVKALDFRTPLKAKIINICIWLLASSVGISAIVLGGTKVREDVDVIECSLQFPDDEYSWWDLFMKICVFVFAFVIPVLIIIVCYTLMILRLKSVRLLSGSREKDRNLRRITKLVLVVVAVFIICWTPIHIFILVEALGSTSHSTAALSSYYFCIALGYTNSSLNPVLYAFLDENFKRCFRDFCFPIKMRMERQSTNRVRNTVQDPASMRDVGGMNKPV

SMILES strings stand for the structures.

The target of experiment [1] is Delta-type opioid receptor (Homo sapiens, UniProt P41143). Nature of the experiment: biochemical.
The target of experiment [2] is Kappa-type opioid receptor (Mus musculus, UniProt P33534). Nature of the experiment: biochemical.

The EC50 is the midpoint of the concentration-response curve. A lower EC50 goes with a more potent agent. Turning to `O=C(N[C@H]1CC[C@@]2(O)[C@H]3Cc4ccc(O)c5c4[C@@]2(CCN3CC2CC2)[C@H]1O5)c1ccc[nH]1`, the values for the EC50 in experiment [1] and in experiment [2] were 26.9 nM and 14.8 nM, respectively.
